Test results taken from patent publication US20150335679A1, “Methods and Compositions for Treating Malignancies with Dendritic Cells” (Kiromic, LLC, priority 2014, published 2015).
Where no end group is shown, it is not given here.

System: autologous pulsed dendritic cells
Test: In vitro LDH cytotoxicity assay: CTL primed by matured/pulsed DC against autologous pulsed DC
Conditions: DC pulsed with the peptide; CTL after 10 days co-culture with autologous PBL; effector:target 40 to 20:1; FIG. 5

## ATEKSVKTK [PTTG1(70-78)]
  induction of antigen-specific cytotoxic lymphocytes (specific lysis of TAPA-presenting DC): successfully induced the maturation and activation of antigen-specific cytotoxic lymphocytes

## FTEEIEWLK [Ropporin-1(113-121)]
  induction of antigen-specific cytotoxic lymphocytes (specific lysis of TAPA-presenting DC): successfully induced the maturation and activation of antigen-specific cytotoxic lymphocytes

## ILDSSEEDK [SP17(103-111)]
  induction of antigen-specific cytotoxic lymphocytes (specific lysis of TAPA-presenting DC): successfully induced the maturation and activation of antigen-specific cytotoxic lymphocytes

## YADQVNIDY [AKAP-4(150-158)]
  induction of antigen-specific cytotoxic lymphocytes (specific lysis of TAPA-presenting DC): successfully induced the maturation and activation of antigen-specific cytotoxic lymphocytes
